The record followed here is PubChem BioAssay AID485272 (The Scripps Research Institute Molecular Screening Center, 2010).

Chains of the proteins cited; added tags and fusions are not shown.
UniProt Q9UM07, whole entry: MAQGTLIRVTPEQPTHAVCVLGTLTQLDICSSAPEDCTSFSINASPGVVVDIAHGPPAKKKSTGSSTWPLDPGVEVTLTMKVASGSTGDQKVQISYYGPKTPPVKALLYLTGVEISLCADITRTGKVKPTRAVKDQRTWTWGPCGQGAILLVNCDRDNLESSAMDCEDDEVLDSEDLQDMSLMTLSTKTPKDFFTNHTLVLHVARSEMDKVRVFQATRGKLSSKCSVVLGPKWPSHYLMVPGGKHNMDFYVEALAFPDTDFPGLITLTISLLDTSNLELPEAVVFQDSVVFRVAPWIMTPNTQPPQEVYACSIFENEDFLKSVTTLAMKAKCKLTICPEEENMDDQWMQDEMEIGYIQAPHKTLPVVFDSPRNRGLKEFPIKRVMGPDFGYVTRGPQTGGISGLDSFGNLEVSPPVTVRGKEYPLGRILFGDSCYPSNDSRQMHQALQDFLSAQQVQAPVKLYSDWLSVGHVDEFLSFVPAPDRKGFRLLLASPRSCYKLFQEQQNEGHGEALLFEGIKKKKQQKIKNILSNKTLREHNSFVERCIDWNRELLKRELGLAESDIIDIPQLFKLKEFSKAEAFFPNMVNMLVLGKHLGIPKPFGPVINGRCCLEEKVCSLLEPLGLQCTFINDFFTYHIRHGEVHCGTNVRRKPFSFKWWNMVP

This is a selection; strong and weak results do not stand in their true shares. Some results for these compounds are left out of this collection, so the calls shown say nothing about other tests. Calls of active or inactive are those of the source.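 The calls were made as follows: active = percent inhibition above a cutoff equal to the mean of all tested compounds plus 3 SD (cut at about 15% in these data); inactive = the rest.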

As a reminder, the inhibition is the change of the read-out against control, counted positive when it falls.

For the assay, the target named is Protein-arginine deiminase type-4 (Homo sapiens) (UniProt Q9UM07). Nature of the assay: human PAD4 inhibitors, primary screen, biochemical, fluorescence polarization, 1536-well format (AID 485272).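 Also: 0% = PAD4 with RCA probe and DMSO and 100% = probe without PAD4.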 To be noted: recombinant PAD4, RCA probe fluorescence polarization; at 6.36 µM; active compounds read high. (Polarisation of emitted light reports the rotation of a fluorescent probe.)
For the molecule `COc1cccc(C(=O)NCC2(N3CCCCC3)CCCCC2)c1`, the inhibition was inactive: 2.27%. With `COc1ccc(Cl)cc1C(=O)NCC1(N(C)C)CCCCC1`, the inhibition was inactive: -2.58%. Then `O=C(NCC1(N2CCCCC2)CCCCC1)c1cccc(Cl)c1`, with inactive: -3.96%; and `CN(C)C1(CNC(=O)c2ccc(Br)cc2)CCCCC1`, with inactive: -7.62%. Under `COc1cc(C(=O)NCC2(N(C)C)CCCCC2)c([N+](=O)[O-])cc1OC` stands inactive: 1.36%; under `COc1ccc(Br)c(C(=O)NCC2(N3CCCCC3)CCCCC2)c1`, inactive: -2.5%; under `CN(C)c1cccc(C(=O)NCC2(N(C)C)CCCCC2)c1`, inactive: 0.6%. Then `CC(C)Oc1ccc(C(=O)NCC2(N(C)C)CCCCC2)cc1`, with inactive: -0.59%. Regarding `O=C(OC1CN2CCC1CC2)C(CO)(c1ccccc1)c1ccccc1` (centres undefined), the inhibition was inactive: -7.35%. Under `CC(C)N1C(=O)CC2(CCN(CCOC(=O)C(O)(c3ccccc3)c3ccccc3)CC2)C1=O` stands inactive: 0.15%; under `CCN(CC)CC(C)C(C)OC(=O)C(O)(c1ccccc1)c1ccccc1` (centres undefined), inactive: -0.59%. Then `COc1cc(SC)ccc1C(=O)NCC1(N(C)C)CCCCC1`, with inactive: -0.14%; and `Cc1ccc(C(=O)NCC2(N3CCCCC3)CCCCC2)cc1`, with inactive: -8.53%; and `O=C(NCC1(N2CCCCC2)CCCCC1)c1cc([N+](=O)[O-])ccc1Cl`, with inactive: 0.91%.

`CN1[C@@H]2CC[C@H]1CC(OC(=O)C(O)(c1ccccc1)c1ccccc1)C2` (some centres undefined): the inhibition was inactive: -3.82%.

Turning to `C=CCN1CCN(CCOC(=O)C(O)(c2ccccc2)c2ccccc2)CC1`, the inhibition was inactive: -6.81%.

For the molecule `O=C(NCC1(N2CCCCC2)CCCCC1)c1cc(F)c(F)cc1Cl`, the inhibition was inactive: -2.75%. Under `Cc1cc(C(=O)NCC2(N3CCCCC3)CCCCC2)ccc1[N+](=O)[O-]` stands inactive: 1.12%. Under `CCN1CCCC(OC(=O)C2(O)c3ccccc3C=Cc3ccccc32)C1` (centres undefined) stands inactive: 4.1%; under `O=C(NCC1(N2CCCCC2)CCCCC1)c1cccc(Br)c1`, inactive: 0.34%.

Turning to `COc1ccc(C(=O)NCC2(N(C)C)CCCCC2)cc1`, the inhibition is inactive: -4.59%.

On to `Cc1ccccc1C(=O)NCC1(N2CCCCC2)CCCCC1`, for which the inhibition is inactive: -9.84%. Under `CN(C)C1CCCC1OC(=O)C(O)(c1ccccc1)c1ccccc1` (centres undefined) stands inactive: 1.1%; under `CN(C)c1ccc(C(=O)NCC2(N(C)C)CCCCC2)cc1`, inactive: -0.58%.
